## Antibody variant affinities, Ab-91 heavy chain, assay 2

Source: Engelhart et al. 2022 (doi:10.1038/s41597-022-01779-4), MIT Lincoln Laboratory and A-Alpha Bio; data file from the FLAb repository.

All variants were tested on one target, the spike HR2 peptide PDVDLGDISGINAS (SARS-CoV-2).

Each scFv is VL, a 15-residue (Gly4Ser)3 linker, VH, as in the parent Ab-91, and differs from it in the CDRs of the heavy chain only.
VL: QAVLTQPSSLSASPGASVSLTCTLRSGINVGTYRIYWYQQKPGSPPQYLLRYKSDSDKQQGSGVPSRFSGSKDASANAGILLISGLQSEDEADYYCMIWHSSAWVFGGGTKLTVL
VH: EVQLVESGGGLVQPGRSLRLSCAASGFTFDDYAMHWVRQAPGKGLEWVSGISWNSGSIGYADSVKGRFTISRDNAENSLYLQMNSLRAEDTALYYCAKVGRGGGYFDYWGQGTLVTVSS

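The parent was found by panning a naive human phage display library on the peptide. Library AAYL51 holds single substitutions and randomly drawn double and triple substitutions in the CDRs. In AlphaSeq, yeast of one mating type display the scFv and yeast of the other type display the target. Mating (16 h, 30 °C) was followed by selection of diploids and sequencing of their barcodes. Each replicate has its own calibration line, from reference interactions of the BCL2 family. Mating was done three times.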

Substitutions are numbered in sequence along the VH above, starting at 1 (not Kabat). Every variant below is changed at S57 of the VH (sequential numbering). Values are log10 of the apparent Kd in nM; lower means stronger binding. Replicates are averaged; those with no signal do not enter the mean. A pair that was not seen in that replicate is written "ND"; this usually means weak binding, but a binder can also be missed. The list is sorted by this average, lowest first, undetected variants last. Background: pairings of library AAYL51 with three empty control strains gave a value in 21% of cases (median 4.54, 5th percentile 3.26). Values in that range, when seen in few replicates, are hard to tell from nonspecific mating. In this assay the parent's reference entry averaged 1.86; its copy inside this library read 0.88.

changes,log10 Kd (nM) by replicate,"log10 Kd (nM), mean"
S57D/G104K/Y105D,0.57 0.55 -0.13,0.33
N54D/S57N/Y108K,1.15 1.09 0.46,0.90
S57A,1.16 1.19 0.68,1.01
S57A/D62E/G103N,1.20 1.13 0.82,1.05
D31Q/S57F/K65A,2.16 2.12 1.63,1.97
S57F/S63F/F106N,2.63 2.63 2.26,2.51
D31I/S57E/S63V,2.75 2.67 2.58,2.67
S57P/G100V/Y105A,ND ND 3.00,3.00
I51G/S57R/G104P,3.53 ND ND,3.53
S57D/G103P/D107R,ND 3.68 ND,3.68
G26I/F27E/S57A,ND 3.94 3.44,3.69
D30G/S57P/I58E,3.74 4.34 3.01,3.70
F27A/W53A/S57P,ND 4.00 ND,4.00
S57H/D62Y/G100W,3.99 3.58 4.73,4.10
T28A/S57K/V64W,4.03 4.39 ND,4.21
F27E/F29E/S57C,ND 4.01 4.44,4.23
G50W/S57E/Y105N,4.32 ND ND,4.32
S57C/R101P/G104Q,ND 4.49 ND,4.49
S57H/I58Y/R101C,ND ND 4.54,4.54
T28K/S57D/G104W,4.08 5.58 ND,4.83
F29L/H35R/S57Q,4.85 ND ND,4.85
W53S/S57N/F106Q,ND 5.77 3.99,4.88
H35A/S57G,4.81 5.17 ND,4.99
A33Y/M34W/S57L,ND 4.99 ND,4.99
S57W/V99D/D107G,4.21 4.91 5.93,5.02
F27N/S57M/F106L,5.24 4.95 ND,5.10
M34K/I51L/S57W,ND 5.12 ND,5.12
I51T/S57K,5.02 5.73 4.68,5.14
S57V/G59E/D107S,5.26 5.19 5.14,5.19
G26I/S57G/Y105K,ND 5.05 5.40,5.22
S57W/D107K,4.96 5.49 ND,5.22
F29C/N54T/S57Y,6.19 ND 5.20,5.70
S57H/G104F,6.15 5.63 ND,5.89
D31K/A33W/S57W,ND ND ND,ND
N54F/S57E/Y108W,ND ND ND,ND
S57Y/V64L,ND ND ND,ND
S57C/V64K,ND ND ND,ND
M34G/S57P/Y60D,ND ND ND,ND
S57I/G103R/F106P,ND ND ND,ND
S52L/S57M/D62M,ND ND ND,ND
A33Q/S57Y/G100R,ND ND ND,ND
T28H/H35K/S57R,ND ND ND,ND
F27N/N54D/S57L,ND ND ND,ND
S57F/G100K/G102A,ND ND ND,ND
M34S/S57Q/D62C,ND ND ND,ND
F27Y/S57I/D62Q,ND ND ND,ND
S57M/D62Q,ND ND ND,ND

A selection of 4 entries from above:

changes,log10 Kd (nM) by replicate,"log10 Kd (nM), mean"
S57W/D107K,4.96 5.49 ND,5.22
N54D/S57N/Y108K,1.15 1.09 0.46,0.90
A33Y/M34W/S57L,ND 4.99 ND,4.99
S57H/G104F,6.15 5.63 ND,5.89